# Key:
# in vitro = details: human, Caco-2, pH 7.4
# [1] = human fraction absorbed; rounded to two significant figures; ref [17]; cited from earlier work
smiles,measurement,setting,value
CC(C)CN(C[C@@H](O)[C@H](Cc1ccccc1)NC(=O)O[C@H]1CCOC1)S(=O)(=O)c1ccc(N)cc1 [Amprenavir],efflux ratio,in vitro,> 2
Cc1nc2n(c(=O)c1CCN1CCC(c3noc4cc(F)ccc34)CC1)CCCC2 [Risperidone],Observed Human fa,[1],0.85

# Source: paper PMC11280027, “Conquering the beyond Rule of Five Space with an Optimized High-Throughput Caco-2 Assay to Close Gaps in Absorption Prediction” (Pharmaceutics, 2024)
